The source of these data is patent US10435371B2, “Multifunctional aminoquinoline therapeutic agent” (LOHOCLA RESEARCH CORPORATION, priority 2014, dated 2019).

Protein sequences, listed by entry. Tags and fused reporters are not part of them.
UniProt P41143, whole entry: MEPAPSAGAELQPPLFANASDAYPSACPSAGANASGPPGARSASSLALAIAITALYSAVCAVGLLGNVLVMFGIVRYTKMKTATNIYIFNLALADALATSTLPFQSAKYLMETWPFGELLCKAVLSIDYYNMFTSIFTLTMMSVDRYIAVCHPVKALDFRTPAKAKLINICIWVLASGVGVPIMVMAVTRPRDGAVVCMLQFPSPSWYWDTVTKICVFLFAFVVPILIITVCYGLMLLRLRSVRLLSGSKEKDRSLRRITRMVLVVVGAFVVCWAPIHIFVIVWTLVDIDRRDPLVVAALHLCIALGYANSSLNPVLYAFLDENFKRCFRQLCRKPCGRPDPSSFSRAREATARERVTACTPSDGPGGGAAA

This assay deals with delta opiate receptor (Homo sapiens, UniProt P41143). As to the kind of experiment: cAMP accumulation, HEK293 cells transfected with DA receptor, delta opiate receptor and AC7. It counts as cell-based. Also noted: expressed in transfected cells; host or cells: HEK293 (ATCC), calcium phosphate transient transfection. Conditions: DOR, BCUKA 10 and 20 μM, DPDPE 1 μM, FIG. 2.

DPDPE [reference compound]: the “Effect on cAMP accumulation in the presence of dopamine” value is “significantly increased”.
